Publication PMC11325555, “Interaction of Bisphenol A and Its Analogs with Estrogen and Androgen Receptor from Atlantic Cod (Gadus morhua)” (Environmental Science & Technology, 2024)

What was measured:
[1] = molecular target: T1, Atlantic cod estrogen receptor alpha (gmEra) LBD (Gadus morhua, UniProt U5ILH7); test: Luciferase reporter gene assay, gmEra antagonism (antiestrogenic activity), coexposure with 3 nM EE2; format: cell-based
T1 sequence (U5ILH7 170-455): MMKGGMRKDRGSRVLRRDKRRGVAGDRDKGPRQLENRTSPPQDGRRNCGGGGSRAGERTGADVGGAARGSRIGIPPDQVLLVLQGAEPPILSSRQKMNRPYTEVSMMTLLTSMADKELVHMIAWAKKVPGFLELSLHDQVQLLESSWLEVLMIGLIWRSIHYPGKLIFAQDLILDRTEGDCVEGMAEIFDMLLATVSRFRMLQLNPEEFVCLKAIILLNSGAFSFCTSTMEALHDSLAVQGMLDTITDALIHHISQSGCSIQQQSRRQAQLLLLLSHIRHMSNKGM
Procedure: Ligand activation of gmEra and gmAra was studied with a luciferase reporter gene assay in COS-7 cells transiently transfected with the pCMX-GAL4(DBD)-gmEra(LBD) or pCMX-GAL4(DBD)-gmAra(LBD) plasmid by using the TransIT-LT1 reagent (TransIT-LT1 Transfection Reagent, Mirus). Cells were seeded into 96-well plates (5000 cells/well) and incubated for 24 h before cotransfection with the plasmid mixture (100 ng/well). The plasmid mixture contained GAL4-UAS luciferase reporter plasmid (tk-(MH100)x4 luc), the pCMX-GAL4(DBD)-gmEra(LBD) or pCMX-GAL4(DBD)-gmAra(LBD) receptor plasmids (2:1 reporter:receptor plasmid mass ratio), and a plasmid constitutively producing the β-galactosidase enzyme used for normalization of transfection efficiency (pCMV- β-Gal). […] The maximum DMSO/methanol concentrations in the exposure wells were 0.5% (v/v) in DMEM medium without phenol red (Sigma-Aldrich). After exposure, cells were lysed, and luciferase and beta-galactosidase activities were measured as luminescence and absorbance (420 nm) after the addition of luciferin and ONPG substrates, respectively, using an Enspire Multimode plate reader (PerkinElmer, Waltham, Massachusetts, USA). […]

[2] = molecular target: T2, Atlantic cod androgen receptor alpha (gmAra) LBD (Gadus morhua, UniProt D5FIC7); test: Luciferase reporter gene assay, gmAra agonism (androgenic activity) in transfected COS-7 cells; conditions: COS-7, monkey, 24 h, read-out: gmAra Emax
T2 sequence (D5FIC7 409-718): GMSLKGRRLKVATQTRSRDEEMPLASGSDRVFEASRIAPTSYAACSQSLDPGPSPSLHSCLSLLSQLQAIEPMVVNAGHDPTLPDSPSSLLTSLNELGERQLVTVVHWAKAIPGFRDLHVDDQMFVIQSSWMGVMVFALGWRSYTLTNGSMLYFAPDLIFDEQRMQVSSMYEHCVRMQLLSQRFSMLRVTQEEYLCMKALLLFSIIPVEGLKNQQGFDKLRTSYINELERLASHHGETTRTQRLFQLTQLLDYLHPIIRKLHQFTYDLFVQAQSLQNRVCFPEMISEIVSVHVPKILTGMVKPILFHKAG
Procedure: (§1) Ligand activation of gmEra and gmAra was studied with a luciferase reporter gene assay in COS-7 cells transiently transfected with the pCMX-GAL4(DBD)-gmEra(LBD) or pCMX-GAL4(DBD)-gmAra(LBD) plasmid by using the TransIT-LT1 reagent (TransIT-LT1 Transfection Reagent, Mirus). Cells were seeded into 96-well plates (5000 cells/well) and incubated for 24 h before cotransfection with the plasmid mixture (100 ng/well). The plasmid mixture contained GAL4-UAS luciferase reporter plasmid (tk-(MH100)x4 luc), the pCMX-GAL4(DBD)-gmEra(LBD) or pCMX-GAL4(DBD)-gmAra(LBD) receptor plasmids (2:1 reporter:receptor plasmid mass ratio), and a plasmid constitutively producing the β-galactosidase enzyme used for normalization of transfection efficiency (pCMV- β-Gal). […] The maximum DMSO/methanol concentrations in the exposure wells were 0.5% (v/v) in DMEM medium without phenol red (Sigma-Aldrich). After exposure, cells were lysed, and luciferase and beta-galactosidase activities were measured as luminescence and absorbance (420 nm) after the addition of luciferin and ONPG substrates, respectively, using an Enspire Multimode plate reader (PerkinElmer, Waltham, Massachusetts, USA).
Figure 3 Androgenic activity of bisphenols. COS-7 cells were transiently transfected with gmAra LBD and exposed individually to 12 bisphenol analogs at increasing concentrations. […]

[3] = molecular target: T1, Atlantic cod estrogen receptor alpha (gmEra) LBD; test: Luciferase reporter gene assay, gmEra agonism (estrogenic activity) in transfected COS-7 cells; conditions: for maximal fold induction: COS-7, monkey, 24 h, read-out: gmEra Emax
Procedure: as §1
Luciferase reporter gene assays were established with COS-7 cells transiently producing the LBD of gmEra (Figure S1) for evaluating the estrogenic potential of 12 bisphenols.
COS-7 cells transiently transfected with gmEra-LBD were exposed to EE2 (open circles), BPA (black circles), and 11 different BPA analogs (red squares and as indicated) at increasing concentrations. Responses are presented as mean fold activation in luciferase activity in comparison to solvent-exposed cells ± SEM from three independent experiments with three technical replicates (n = 9). The dose–response curves were created using nonlinear regression and the four parameter logistic fit in Graphpad Prism v.9. For comparison, the dose–response curve of BPA (black line) is indicated together with each individual BP tested (red line). *p < 0.05 versus solvent control by one-way ANOVA and Dunnett’s multiple comparison post hoc test.

| SMILES | IC50 [1] | maximal fold induction [2] | maximal fold induction [3] | gmEra activation, result in words ([3]; luciferase reporter gene assay) | EC50 ([3]; gmEra EC50, four-parameter logistic fit, 24 h exposure) | gmEra REP50 (relative potency EC50, EC50-bisphenol A/EC50-bisphenol X) ([3]; relative to BPA) |
| --- | --- | --- | --- | --- | --- | --- |
| CC(C)c1cc(C(C)(C)c2ccc(O)c(C(C)C)c2)ccc1O [BPG] | 1400 nM | 0.8 | ~1.4 | did not activate gmEra |  |  |
| CC1CC(C)(C)CC(c2ccc(O)cc2)(c2ccc(O)cc2)C1 (stereo not drawn) [BPTMC] | ~1860 nM | 1.4 | > 1.5 |  | 1280 nM | 1.5 |
